Laboratory results: patent US20250319161A1, “IMPROVED METHODS OF TREATING DISEASES RESULTING FROM A MALADAPTED STRESS RESPONSE” (priority 2021, published 2025)

By UniProt entry, the sequences of proteins in these tests, tags left out.
UniProt P47866, whole entry: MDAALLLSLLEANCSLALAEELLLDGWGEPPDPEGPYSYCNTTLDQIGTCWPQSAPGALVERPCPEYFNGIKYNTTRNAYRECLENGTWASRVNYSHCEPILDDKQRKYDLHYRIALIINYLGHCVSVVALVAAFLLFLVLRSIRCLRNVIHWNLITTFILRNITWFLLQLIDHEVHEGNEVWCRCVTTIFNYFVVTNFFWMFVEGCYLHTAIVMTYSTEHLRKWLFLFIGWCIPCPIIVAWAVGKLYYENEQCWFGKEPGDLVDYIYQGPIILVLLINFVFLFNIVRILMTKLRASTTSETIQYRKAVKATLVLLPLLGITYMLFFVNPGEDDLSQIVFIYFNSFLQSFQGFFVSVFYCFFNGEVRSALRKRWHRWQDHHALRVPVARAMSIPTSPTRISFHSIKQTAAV

What was measured:
[1] = human, in vivo
[2] = biological target: CRFR2 (Rattus norvegicus, UniProt P47866); conditions: rats, identified together with CL; cited from earlier work
[3] = clinical; conditions: human, plasma, subcutaneous
[4] = healthy humans; PK-PD modeling of bolus dosing in prior Phase 1 trial
[5] = biological target: T1, CRFR2 (Homo sapiens, UniProt Q13324); experiment: Agonist potency at CRFR2 (EC50, % of Emax); type: cell-based
T1 sequence (Q13324 1-411): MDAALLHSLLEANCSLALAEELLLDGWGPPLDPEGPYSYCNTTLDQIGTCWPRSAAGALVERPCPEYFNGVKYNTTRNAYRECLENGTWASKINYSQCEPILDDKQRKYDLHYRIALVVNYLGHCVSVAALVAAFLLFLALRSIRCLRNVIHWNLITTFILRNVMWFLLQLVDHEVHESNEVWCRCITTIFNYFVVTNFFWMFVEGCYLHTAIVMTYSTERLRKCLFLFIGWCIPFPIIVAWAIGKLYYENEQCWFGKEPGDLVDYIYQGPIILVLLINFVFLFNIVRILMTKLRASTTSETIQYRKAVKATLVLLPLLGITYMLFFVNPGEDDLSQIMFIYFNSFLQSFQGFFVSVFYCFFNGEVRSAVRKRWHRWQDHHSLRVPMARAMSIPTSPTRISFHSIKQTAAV

[6] = biological target: T1, CRFR2; experiment: Phase 1/2 trial in ME/CFS patients: acute heart rate and diastolic blood pressure changes; type: in vivo; set-up: from tissue; host or cells: human subjects, in vivo (clinical trials); conditions: D20pb (priming bolus 0.15 μg/kg + infusion 0.20-0.24 μg/kg/h), first patient
Text: FIG. 4 compares the pre/post-treatment changes in TDSS (total daily symptom score) and individual symptoms in the 28-day period prior to the start of treatment, with those in the 28-day period prior to exit from the trial, by dose group. […] TDSS improved persistently at D03 (pre: 29.2±3.7; post: 21.7±4.1; p=0.009; change: −25.7%), and trended better at D01 (pre: 28.7±3.4; post: 25.5±4.1; p=0.136; change: −11.1%) and D06 (pre: 31.3±2.4; post: 29.5±2.1; p=0.451; change: −5.6%), but worsened at D20 (pre: 30.1±5.1; post: 33.0±2.5; p=0.240; change: +9.6%). Most individual symptoms changed persistently, in a manner reflecting this biphasic dose-response. For instance, at D03, the therapeutic response was strong for most of the cardinal symptoms of ME/CFS, while at D20 symptoms predominantly worsened.

[7] = healthy humans, prior Phase 1 trial; cited from earlier work
[8] = D03: sc infusion 0.03 μg/kg/hour, 3.5 hours, 3 treatments

Question: What does the source list for CC[C@H](C)[C@H](NC(=O)[C@@H](NC(=O)[C@H](CC(=O)O)NC(=O)[C@H](CC(C)C)NC(=O)[C@H](CC(C)C)NC(=O)[C@H](CCCNC(=N)N)NC(=O)[C@H](C)NC(=O)[C@H](CC(N)=O)NC(=O)[C@H](CC(N)=O)NC(=O)[C@H](C)NC(=O)[C@H](C)NC(=O)[C@H](CCC(N)=O)NC(=O)[C@H](CCC(N)=O)NC(=O)[C@H](CCCCN)NC(=O)[C@H](CCC(=O)O)NC(=O)[C@H](CCCCN)NC(=O)[C@H](CCC(=O)O)NC(=O)[C@H](CCC(N)=O)NC(=O)[C@H](CCCCN)NC(=O)[C@H](CCC(=O)O)NC(=O)[C@@H](NC(=O)[C@H](CCC(=O)O)NC(=O)[C@@H](NC(=O)[C@@H](NC(=O)[C@H](CCCCN)NC(=O)[C@H](CCCNC(=N)N)NC(=O)[C@H](CC(C)C)NC(=O)[C@H](CC(C)C)NC(=O)[C@H](CCC(N)=O)NC(=O)[C@H](Cc1ccccc1)NC(=O)[C@@H]1CCCN1C(=O)[C@H](CC(C)C)NC(=O)[C@H](CC(=O)O)NC(=O)[C@@H](NC(=O)[C@H](CO)NC(=O)[C@@H](NC(=O)[C@@H]1CCCN1C(=O)[C@@H]1CCCN1C(=O)CNC(=O)[C@@H]1CCC(=O)N1)[C@@H](C)CC)[C@@H](C)CC)C(C)C)[C@@H](C)CC)[C@@H](C)CC)[C@@H](C)O)C(N)=O [CT38]?
Answer: plasma concentrations found intolerable [1]: > 0.7 ng/mL; Total AUC [2]: ~40 ng·h/mL; Cmax ([3]; 0.06 ug/kg, mean Cmax, D06 (0.06 μg/kg/h)): 0.27 to 0.31 ng/mL; total AUC, human equivalent [4]: ~7.0 ng·h/mL; Emax [5]: 100%

Question: With CC[C@H](C)[C@H](NC(=O)[C@@H](NC(=O)[C@H](CC(=O)O)NC(=O)[C@H](CC(C)C)NC(=O)[C@H](CC(C)C)NC(=O)[C@H](CCCNC(=N)N)NC(=O)[C@H](C)NC(=O)[C@H](CC(N)=O)NC(=O)[C@H](CC(N)=O)NC(=O)[C@H](C)NC(=O)[C@H](C)NC(=O)[C@H](CCC(N)=O)NC(=O)[C@H](CCC(N)=O)NC(=O)[C@H](CCCCN)NC(=O)[C@H](CCC(=O)O)NC(=O)[C@H](CCCCN)NC(=O)[C@H](CCC(=O)O)NC(=O)[C@H](CCC(N)=O)NC(=O)[C@H](CCCCN)NC(=O)[C@H](CCC(=O)O)NC(=O)[C@@H](NC(=O)[C@H](CCC(=O)O)NC(=O)[C@@H](NC(=O)[C@@H](NC(=O)[C@H](CCCCN)NC(=O)[C@H](CCCNC(=N)N)NC(=O)[C@H](CC(C)C)NC(=O)[C@H](CC(C)C)NC(=O)[C@H](CCC(N)=O)NC(=O)[C@H](Cc1ccccc1)NC(=O)[C@@H]1CCCN1C(=O)[C@H](CC(C)C)NC(=O)[C@H](CC(=O)O)NC(=O)[C@@H](NC(=O)[C@H](CO)NC(=O)[C@@H](NC(=O)[C@@H]1CCCN1C(=O)[C@@H]1CCCN1C(=O)CNC(=O)[C@@H]1CCC(=O)N1)[C@@H](C)CC)[C@@H](C)CC)C(C)C)[C@@H](C)CC)[C@@H](C)CC)[C@@H](C)O)C(N)=O [CT38s] as the compound, how does the “TEAEs Other: Metabolism/nutritional, number of events” value [1] read?
Answer: 1

Question: What about the “TEAEs Other: Pain, number of events” value [1] of the same compound?
Answer: 2

Question: And the “TEAEs TDSS-Related: Anxiety, number of events” value [1]?
Answer: 1

Question: And the “TEAEs TDSS-Related: Depression, number of events” value [1]?
Answer: 2

Question: And the “TEAEs TDSS-Related: Shortness of breath, number of events” value [1]?
Answer: 1

Question: And the “onset of TEAEs after dose commencement” value [1]?
Answer: ≤ 10 h

Question: What about the safety concerns [1] of the same compound?
Answer: safety concerns were absent

Question: And the “share of TEAEs that were mild” value [1]?
Answer: 79.0%

Question: And the “share of TEAEs that were moderate” value [1]?
Answer: 18.5%

Question: And the “share of TEAEs that were severe” value [1]?
Answer: 2.5%

Question: What about the “only severe TEAE” value ([1]; iv) of the same compound?
Answer: tachycardia and hypotension

Question: And the hemodynamic effect [6]?
Answer: increased heart rate and decreased diastolic blood pressure

Question: What about the Cmax ([3]; 0.01 μg/kg/h, Mean Cmax, patient 35, D01 (0.01 μg/kg/h), 1 treatment, total dose 0.035 μg/kg) of the same compound?
Answer: 0.12 ng/mL

Question: And the Cmax ([3]; 0.01 μg/kg/h, Mean Cmax, patient 38, D01 (0.01 μg/kg/h), total dose 0.105 μg/kg)?
Answer: 0.09 ng/mL

Question: What about the Cmax ([3]; 0.01 μg/kg/h, Mean Cmax, patient 45, D01 (0.01 μg/kg/h), total dose 0.105 μg/kg) of the same compound?
Answer: 0.11 ng/mL

Question: And the Cmax ([3]; 0.03 μg/kg/h, Mean Cmax, patient 27, D03 (0.03 μg/kg/h), total dose 0.315 μg/kg)?
Answer: 0.24 ng/mL

Question: And the Cmax ([3]; 0.03 μg/kg/h, Mean Cmax, patient 29, D03 (0.03 μg/kg/h), total dose 0.285 μg/kg)?
Answer: 0.16 ng/mL

Question: What about the Cmax ([3]; 0.03 μg/kg/h, Mean Cmax, patient 30, D03 (0.03 μg/kg/h), total dose 0.315 μg/kg) of the same compound?
Answer: 0.2 ng/mL

Question: And the Cmax ([3]; 0.03 μg/kg/h, Mean Cmax, patient 31, D03 (0.03 μg/kg/h), total dose 0.315 μg/kg)?
Answer: 0.17 ng/mL

Question: What about the Cmax ([3]; 0.03 μg/kg/h, Mean Cmax, patient 32, D03 (0.03 μg/kg/h), total dose 0.315 μg/kg) of the same compound?
Answer: 0.16 ng/mL

Question: And the Cmax ([3]; 0.03 μg/kg/h, Mean Cmax, patient 33, D03 (0.03 μg/kg/h), total dose 0.315 μg/kg)?
Answer: 0.17 ng/mL

Question: What about the Cmax ([3]; 0.03 μg/kg/h, Mean Cmax, patient 46, D03 (0.03 μg/kg/h), total dose 0.315 μg/kg) of the same compound?
Answer: 0.15 ng/mL

Question: And the Cmax ([3]; 0.06 μg/kg/h, Mean Cmax, patient 34, D06 (0.06 μg/kg/h), 2 treatments, total dose 0.420 μg/kg)?
Answer: 0.31 ng/mL

Question: And the Cmax ([3]; 0.06 μg/kg/h, Mean Cmax, patient 36, D06 (0.06 μg/kg/h), total dose 0.630 μg/kg)?
Answer: 0.27 ng/mL

Question: What about the Cmax ([3]; 1.62 μg/kg, Mean Cmax, patient 24, D20pb then D20, total dose 1.620 μg/kg) of the same compound?
Answer: 0.77 ng/mL

Question: What about the Cmax ([3]; Mean Cmax, patient 23, D20 (0.20-0.24 μg/kg/h), total dose 0.795 μg/kg) of the same compound?
Answer: 1.03 ng/mL

Question: And the “maximum tolerated bolus dose” value [7]?
Answer: 0.833 µg/kg

Question: And the “average total AUC” value [8]?
Answer: 2.46 ± 0.51 ng·h/mL

Question: What about the “mean maximum plasma concentration of CT38” value [8] of the same compound?
Answer: 0.18 ± 0.03 ng/mL

Question: What about the “Total AUC” value (patient 23, D20 (0.20-0.24 μg/kg/h), total dose 0.795 μg/kg, ignores leaked infusion) of the same compound?
Answer: 3.91* ng · h/ml

Question: What about the “Total AUC” value (patient 24, D20pb then D20, total dose 1.620 μg/kg) of the same compound?
Answer: 6.24 ng·h/mL

Question: What about the “Total AUC” value (patient 27, D03 (0.03 μg/kg/h), total dose 0.315 μg/kg) of the same compound?
Answer: 3.44 ng·h/mL

Question: And the “Total AUC” value (patient 29, D03 (0.03 μg/kg/h), total dose 0.285 μg/kg, ignores leaked infusion)?
Answer: 2.23* ng · h/ml

Question: And the “Total AUC” value (patient 30, D03 (0.03 μg/kg/h), total dose 0.315 μg/kg)?
Answer: 2.83 ng·h/mL

Question: And the “Total AUC” value (patient 31, D03 (0.03 μg/kg/h), total dose 0.315 μg/kg)?
Answer: 2.19 ng·h/mL

Question: What about the “Total AUC” value (patient 32, D03 (0.03 μg/kg/h), total dose 0.315 μg/kg) of the same compound?
Answer: 2.30 ng·h/mL

Question: And the “Total AUC” value (patient 33, D03 (0.03 μg/kg/h), total dose 0.315 μg/kg)?
Answer: 2.29 ng·h/mL

Question: And the “Total AUC” value (patient 34, D06 (0.06 μg/kg/h), 2 treatments, total dose 0.420 μg/kg)?
Answer: 2.94 ng·h/mL

Question: What about the “Total AUC” value (patient 35, D01 (0.01 μg/kg/h), 1 treatment, total dose 0.035 μg/kg) of the same compound?
Answer: 0.59 ng·h/mL

Question: What about the “Total AUC” value (patient 36, D06 (0.06 μg/kg/h), total dose 0.630 μg/kg) of the same compound?
Answer: 3.10 ng·h/mL

Question: What about the “Total AUC” value (patient 38, D01 (0.01 μg/kg/h), total dose 0.105 μg/kg) of the same compound?
Answer: 1.29 ng·h/mL

Question: What about the “Total AUC” value (patient 45, D01 (0.01 μg/kg/h), total dose 0.105 μg/kg) of the same compound?
Answer: 1.02 ng·h/mL

Question: And the “Total AUC” value (patient 46, D03 (0.03 μg/kg/h), total dose 0.315 μg/kg)?
Answer: 1.94 ng·h/mL

Where two headings read alike, the source gives them in different places. Marks after values point to notes of the source that are not given here.
